According to patent US20170157260A1, “Glycosylated Polypeptide and Drug Composition Containing said Polypeptide” (Glytech, Inc., priority 2011, published 2017):
Read-outs that look alike come from different tables or passages of the source.

The chains behind the UniProt entries cited, without tags or fusion partners. Where a name states a change or a piece, a line headed by the entry shows the natural chain unless it says otherwise.
UniProt P32745: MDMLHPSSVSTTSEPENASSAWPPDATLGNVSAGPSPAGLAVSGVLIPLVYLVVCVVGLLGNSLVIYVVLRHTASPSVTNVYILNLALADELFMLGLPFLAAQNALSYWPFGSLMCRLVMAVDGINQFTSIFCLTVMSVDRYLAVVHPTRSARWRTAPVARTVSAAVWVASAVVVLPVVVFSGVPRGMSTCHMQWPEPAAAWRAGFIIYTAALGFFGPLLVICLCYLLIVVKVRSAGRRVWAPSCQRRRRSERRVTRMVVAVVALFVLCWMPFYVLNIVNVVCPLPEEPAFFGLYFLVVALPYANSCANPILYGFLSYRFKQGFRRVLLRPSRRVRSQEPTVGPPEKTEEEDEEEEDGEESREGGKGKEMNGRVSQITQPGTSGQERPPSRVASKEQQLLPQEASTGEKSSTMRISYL
UniProt P30872: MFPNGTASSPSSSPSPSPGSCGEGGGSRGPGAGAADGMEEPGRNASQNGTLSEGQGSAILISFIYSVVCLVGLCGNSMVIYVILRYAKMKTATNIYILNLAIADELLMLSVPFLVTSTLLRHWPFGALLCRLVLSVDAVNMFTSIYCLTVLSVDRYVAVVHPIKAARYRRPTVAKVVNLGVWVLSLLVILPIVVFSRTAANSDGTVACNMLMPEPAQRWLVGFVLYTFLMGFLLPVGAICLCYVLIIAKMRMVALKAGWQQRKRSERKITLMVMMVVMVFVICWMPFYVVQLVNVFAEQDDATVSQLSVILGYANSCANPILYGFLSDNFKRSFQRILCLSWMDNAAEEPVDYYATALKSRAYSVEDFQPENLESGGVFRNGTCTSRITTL
UniProt P30874: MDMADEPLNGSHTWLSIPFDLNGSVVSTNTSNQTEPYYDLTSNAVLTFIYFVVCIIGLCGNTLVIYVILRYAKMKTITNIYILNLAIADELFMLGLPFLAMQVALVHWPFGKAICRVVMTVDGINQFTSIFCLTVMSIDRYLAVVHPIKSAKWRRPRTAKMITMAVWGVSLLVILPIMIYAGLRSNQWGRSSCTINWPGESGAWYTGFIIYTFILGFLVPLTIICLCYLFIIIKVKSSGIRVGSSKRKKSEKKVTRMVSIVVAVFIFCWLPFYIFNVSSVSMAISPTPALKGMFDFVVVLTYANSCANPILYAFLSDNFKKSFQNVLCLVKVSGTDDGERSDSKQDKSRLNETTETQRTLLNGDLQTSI
UniProt P35346: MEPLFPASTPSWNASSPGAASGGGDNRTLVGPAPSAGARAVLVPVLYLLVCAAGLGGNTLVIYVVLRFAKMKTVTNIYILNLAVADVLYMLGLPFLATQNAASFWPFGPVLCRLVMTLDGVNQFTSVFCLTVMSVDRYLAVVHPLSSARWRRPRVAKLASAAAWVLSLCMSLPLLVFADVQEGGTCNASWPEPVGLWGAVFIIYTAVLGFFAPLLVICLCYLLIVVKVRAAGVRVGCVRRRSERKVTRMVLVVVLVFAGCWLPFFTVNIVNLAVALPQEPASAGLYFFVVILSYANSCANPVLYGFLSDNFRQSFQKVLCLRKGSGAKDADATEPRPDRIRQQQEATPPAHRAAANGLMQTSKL
UniProt P31391: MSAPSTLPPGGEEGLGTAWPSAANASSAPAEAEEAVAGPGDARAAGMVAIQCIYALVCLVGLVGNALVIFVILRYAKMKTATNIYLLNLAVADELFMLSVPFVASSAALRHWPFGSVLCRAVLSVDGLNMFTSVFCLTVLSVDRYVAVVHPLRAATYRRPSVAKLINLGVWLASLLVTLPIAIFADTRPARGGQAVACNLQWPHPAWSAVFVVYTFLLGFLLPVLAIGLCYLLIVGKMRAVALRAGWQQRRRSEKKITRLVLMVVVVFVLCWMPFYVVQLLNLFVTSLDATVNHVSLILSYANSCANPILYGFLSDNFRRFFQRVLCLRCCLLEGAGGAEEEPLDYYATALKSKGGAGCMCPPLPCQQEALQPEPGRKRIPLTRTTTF

Columns and labels:
SSTR1-SSTR5 = test: Competitive binding assay, statements over several receptors SSTR1-SSTR5; details: Example 67-1; approximately
SSTR3 [1] = biological target: T1, SSTR3 (Homo sapiens, UniProt P32745); test: Agonist activity evaluation (cAMP production suppression), SSTR3 receptor expression cells; format: cell-based; set-up: host or cells: CHO-K1 cells; details: Table 3D, Example 67-3; read-out: IC50 of cAMP production suppressing action (agonist activity), SSTR3
SSTR1 [2] = biological target: T2, SSTR1 (Homo sapiens, UniProt P30872); test: Agonist activity evaluation (cAMP production suppression), SSTR1 receptor expression cells; format: cell-based; details: Table 3D, Example 67-3; read-out: IC50 of cAMP production suppressing action (agonist activity), SSTR1
SSTR2 [3] = biological target: T3, SSTR2 (Homo sapiens, UniProt P30874); test: Agonist activity evaluation (cAMP production suppression), SSTR2 receptor expression cells; format: cell-based; set-up: host or cells: CHO-K1 cells; details: Table 3D, Example 67-3; read-out: IC50 of cAMP production suppressing action (agonist activity), SSTR2
SSTR3 [4] = biological target: T1, SSTR3
SSTR5 [5] = biological target: T4, SSTR5 (Homo sapiens, UniProt P35346)
SSTR4 = SSTR4 (Homo sapiens, UniProt P31391); test: Agonist activity evaluation (cAMP production suppression), SSTR4 receptor expression cells; format: cell-based; details: Table 3D, Example 67-3; read-out: IC50 of cAMP production suppressing action (agonist activity), SSTR4
SSTR1 [6] = biological target: T2, SSTR1
SSTR2 [7] = biological target: T3, SSTR2
[8] = tested on: growth hormone (GH) production; test: GH production suppression test with rats; format: in vivo; details: Table 8 (Example 87), vehicle 1012
[9] = Pharmacokinetics test with rats (intravenous and subcutaneous administration); details: rats
SSTR5 [10] = biological target: T4, SSTR5; test: Agonist activity evaluation (cAMP production suppression), SSTR5 receptor expression cells; format: cell-based; set-up: host or cells: CHO-K1 cells; details: Table 3D, Example 67-3; read-out: IC50 of cAMP production suppressing action (agonist activity), SSTR5
[11] = intravenous administration, Tables 5B-5F (Examples 73-84)
[12] = subcutaneous administration, Tables 5B-5F (Examples 73-84)

C(disialo)-R-K-SRIF14 [Example 18]
affinity towards SSTR1-SSTR5, folds higher than S1C(disialo)-SRIF28 (SSTR1-SSTR5): 0.7-2.4 folds | IC50 (SSTR3 [1]): 0.18 ± 0.1 nM | IC50 (SSTR1 [2]): 1.2 ± 0.6 nM | IC50 (SSTR2 [3]): 0.055 ± 0.015 nM | IC50 (SSTR3 [4]): 0.231 nM | Ki (SSTR3 [4]): 0.0791 nM | IC50 (SSTR5 [5]): 0.187 nM | Ki (SSTR5 [5]): 0.106 nM | IC50 (SSTR4): 0.05 ± 0.025 nM | IC50 (SSTR1 [6]): 3.09 nM | Ki (SSTR1 [6]): 2.56 nM | IC50 (SSTR2 [7]): 0.104 nM | Ki (SSTR2 [7]): 0.0551 nM | GH ([8]; dose 1 nmol/kg): 912 ng/mL | GH ([8]; dose 3 nmol/kg): 291 ng/mL | GH ([8]; dose 30 nmol/kg): 12 ng/mL | extension of t1/2 compared to the non-glycosylated form (SRIF28 or SRIF14) ([9]; administered intravenously): 38 folds | increase of AUC compared to the non-glycosylated form (SRIF28 or SRIF14) ([9]; administered intravenously): 55 folds | Intravenous administration AUC [9, 11]: 6571 nM·min | Intravenous administration C0 [9, 11]: 429 nM | Intravenous administration MRT [9, 11]: 22.5 min | Intravenous administration T1/2 [9, 11]: 18.9 min | Subcutaneous administration AUC [9, 12]: 1996 nM·min | Subcutaneous administration Cmax [9, 12]: 32.5 nM | Subcutaneous administration MRT [9, 12]: 45.2 min | Subcutaneous administration T1/2 [9, 12]: 28.4 min | BA ([9]; subcutaneous vs intravenous, Tables 5B-5F (Examples 73-84)): 30% | IC50 (SSTR5 [10]): 0.052 ± 0.032 nM
